Screening results from PubChem BioAssay.
An excerpt weighted towards active compounds, which were near 2.3% of everything screened.
Nrf2 block: Nrf2 pathway inhibition; Potency, µM (highest dose often 46 µM), actives largely listed as inhibitors; A549 ARE-Fluc reporter, luciferase luminescence, 18-24 h; hit rate 2.1% among 360,000; also: nearly all actives have a fitted effect of over 60% in size
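Two sequential reads on A549 ARE_Fluc cells exposed to compound for 18-24 h: a CellTiter-Fluor fluorescence read for viability, then a luciferase luminescence read for Nrf2/ARE activity.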
Mito fusion yeast: mitochondrial division inhibition or fusion activation; S. cerevisiae fusion-defective mutant growth rescue, CellTiterGlo 48 h; Potency, µM (top dose mostly 46.1 µM), usual class: activators; hit rate 0.23% among 320,000; AID 485298; also: nearly all actives have a fitted effect of over 45% in size
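Read-out: ATP-based luminescence (CellTiterGlo, 10 min ambient) reporting growth of fusion-defective ts yeast after 48 hours at 37C on glycerol/ethanol YPEG medium in the presence of compound.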
miR-21 reporter: miR-21 reporter, rising signal; HeLa miR-21 FLuc reporter, luciferase, 48 h; Potency, µM (top dose mostly 38.3 µM); 340,000 tested, under 10 active; active = well fitted rising curve with a large enough effect; inconclusive = small, poorly fitted or top-dose-only effect; inactive = no such curve, though single readings can be large or run the other way;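 further: miR-21 action dims this reporter so a rising signal means less miR-21 action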
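HeLa miR-21-FLuc reporter line, endogenous miR-21; 2000 cells/well in DMEM/10% FBS; compound titration up to ~40uM final, 48 h, 37 degree Celsius; luciferase detection reagent, 15 min lysis, CCD luminescence.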
A549 tox: kills or reduces viability of A549 cells in Nrf2 counter-screen; hit rate 0.16% among 390,000; Potency, µM (top dose mostly 46 µM), hits mostly inhibitors; A549 ARE-Fluc cells, CellTiter-Fluor viability, 18-24 h; AID 504648
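Cytotoxicity counterscreen: CellTiter-Fluor fluorescence was measured in A549 ARE_Fluc cells after 18-24 h of compound exposure in a concentration series. The subsequent BugLite luminescent read reports ARE-luciferase activity.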
Nrf2 activator: Nrf2 pathway activation; AREc32 ARE-luciferase reporter (MCF7-derived line), luminescence, 24 h; hit rate 0.31% among 410,000; Potency, µM (top dose mostly 46.1 µM), usual class: activators; AID 624171; also: nearly all actives have a fitted effect of over 65% in size
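ARE-driven firefly luciferase activity in AREc32 cells measured after a 24 hr compound exposure at 37 deg C, using Steady-Glo reagent and a 30 min room-temperature hold.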
A number is an active result; – = inactive; ? = inconclusive; · = no result; ! = a repeat was not active; [ ] = dose if it differs, or a comment. Unless noted, calls follow the shape of the dose curve; as a rule, active = well fitted curve in the direction sought with a large enough effect; inconclusive = small, poorly fitted or top-dose-only effect, or another doubt; inactive = no such curve, though single readings can be large; an effect the other way counts as inactive or inconclusive.

SMILES	Nrf2 block	Mito fusion yeast	miR-21 reporter	A549 tox	Nrf2 activator
CCOc1ccc(N(CC(=O)Nc2cccc(Cl)c2)S(=O)(=O)c2c(C)noc2C)cc1	23.1µM	–	?	?	–
Cc1noc(C)c1S(=O)(=O)N(CC(=O)Nc1ccc(C(F)(F)F)cc1)c1ccc(C(C)C)cc1	16.4µM	·	–	–	–
CCc1ccc(CNC(=O)c2sc3ncnc(N(C)C4CCCCC4)c3c2C)cc1	·	·	–	–	–
C=CCN(c1ccc(F)cc1)S(=O)(=O)c1cc(C(=O)NC2CCC(O)CC2)ccc1Cl (stereo not drawn)	16.4µM	–	·	–	–
CCN(C(=O)CCNC(=O)Cn1cnc2ccccc2c1=O)c1cc(OC)ccc1OC	–	·	–	–	–
CN(CC(=O)N1CC=C(c2ccccc2)CC1)S(=O)(=O)c1ccc2c(c1)c(=O)n(C)c(=O)n2C	–	–	–	–	–
Cn1c(=O)c2cc(S(=O)(=O)NCCC(=O)N3CC=C(c4ccccc4)CC3)ccc2n(C)c1=O	14.6µM	–	–	–	–
c1ccc(C(c2ccccc2)N2CCN(c3nc4ccccc4n4cnnc34)CC2)cc1	18.4µM	–	–	–	–
CCOC(=O)N1CCN(c2nc3ccccc3n3cnnc23)CC1	–	25.1µM	–	–	–
CCC(Oc1ccccc1F)C(=O)N1CCC(c2nc3ccccc3s2)CC1 (stereo not drawn)	?	·	?	–	–
CCCN(Cc1cccs1)C(=O)Nc1ccc(Br)cc1F	–	·	–	–	–
Cc1cc2c(s1)c1c(C)nn(Cc3ccccc3F)c(=O)c1n2C	·	–	·	·	·
COc1cccc(-c2cc(C(F)(F)F)nc(NCCc3ccccc3)n2)c1	–[9.27 µM]	·	–	–	–
CCC(C)Sc1ccc(-c2nc3cc(C)ccn3c2NC2CCCCC2)cc1 (stereo not drawn)	–	·	·	?	–
CCC(C)Sc1ccc(-c2nc3cnccn3c2NC2CCCCC2)cc1 (stereo not drawn)	23.1µM	–	·	–	–
COCCNC(=O)c1ccc(-n2c(-c3ccccc3)cc3c2CCC(C)C3)cc1 (stereo not drawn)	–	·	–	–	10µM
CCCNC(=O)c1ccc(-n2c(-c3ccccc3)cc3c2CCC(C)C3)cc1 (stereo not drawn)	?	·	?	–	11.2µM
CC1CCCCN1C(=O)COC(=O)c1ccc(S(C)(=O)=O)c([N+](=O)[O-])c1 (stereo not drawn)	–	·	·	–	·
CC(=O)Nc1ccc(NC(=O)c2c(C)nn(-c3ccccc3)c2-n2cccc2)cc1	–	·	–	–	–
COc1ccc(-c2nc3c(c(=O)[nH]c(=O)n3Cc3ccccc3)n2Cc2ccccc2)cc1	14.6µM	–	–	–	–
Cn1c(=O)[nH]c(=O)c2c1nc([N+](=O)[O-])n2Cc1ccccc1	23.1µM	–	?	?	?
CCOc1cc(/C=C2\SC(=O)N(CC(=O)Nc3ccccc3F)C2=O)cc([N+](=O)[O-])c1O	18.4µM	–	–	?	–
Cc1noc(C)c1-c1ccc2ncnc(NCc3ccco3)c2c1	–	·	·	–	·
COc1ccc2c(c1)C1C=CCC1C(c1cc3c(cc1Br)OCO3)N2 (stereo not drawn)	?	–	–	?	–
CC(=O)c1ccc2c(c1)C1C=CCC1C(c1cc3c(cc1Br)OCO3)N2 (stereo not drawn)	–	12.6µM	·	–	–
SMILES	Nrf2 block	Mito fusion yeast	miR-21 reporter	A549 tox	Nrf2 activator
O=c1oc2ccccc2cc1-c1csc(Cc2nc(-c3ccc(Cl)cc3)cs2)n1	20.6µM	–	–	–	–
CCc1cc(C(=O)N2CCCC(N3CCN(c4cccc(C(F)(F)F)c4)CC3)C2)n(C)n1 (stereo not drawn)	8.2µM	–	–	–	–
Cn1c2c(c(=O)n(C)c1=O)C(C(F)(F)F)(C(F)(F)F)N=C(c1ccc(Cl)cc1)N2	2.31µM	–	–	5.8µM	–
CC1CCC(C(C)C)C(OC(=O)Cn2c(-c3ccc(Cl)cc3)[n+](C)c3ccccc32)C1 (stereo not drawn)	?	–	?	?	–
CC1CCC(C(C)C)C(OC(=O)Cn2c(-c3ccc(Br)cc3)[n+](C)c3ccccc32)C1 (stereo not drawn)	20.6µM	–	?	?	–
Cc1ccccc1OCc1n(CC(=O)OC2CC(C)CCC2C(C)C)c2ccccc2[n+]1C (stereo not drawn)	18.4µM!	–	?	–	–
CCN(Cc1ccccc1)C(=O)Cn1c(=O)oc2cc(S(=O)(=O)N3CCCCCC3)ccc21	–	·	–	–	–
CC1(C)CC(=O)C/C(=N/NC(=O)c2ccc(-c3ccccc3)cc2)C1	16.4µM	–	–	–	–
O=C(Nc1ccc(F)cc1)c1cccc(N2C(=O)C3C4C=CC(C5CC45)C3C2=O)c1 (stereo not drawn)	14.6µM	–	–	–	–
O=C(Nc1ccccc1)c1cccc(N2C(=O)C3C4C=CC(C4)C3C2=O)c1 (stereo not drawn)	–	–	–	–	–
COc1ccc(OC)c(NC(=O)c2cccc(N3C(=O)C4C5C=CC(C6CC56)C4C3=O)c2)c1 (stereo not drawn)	–	–	–	–	–
COC(=O)c1ccc(NC(=O)c2cccc(N3C(=O)C4C5C=CC(C6CC56)C4C3=O)c2)cc1 (stereo not drawn)	20.6µM	–	–	?	–
O=C(Nc1ccccc1)c1cccc(N2C(=O)C3C4C=CC(C5CC45)C3C2=O)c1 (stereo not drawn)	20.6µM	–	–	–	–
O=C(O)c1ccc(S(=O)(=O)N[C@@H](Cc2ccc(O)cc2)C(=O)O)cc1	–	–	·	–	·
CCSc1ncc(Cl)c(C(=O)Nc2sc(C(C)=O)c(C)c2C(=O)OC)n1	–	·	–	–	–
CCOc1ccc(Nc2oc(-c3ccc(Cl)cc3)nc2C#N)cc1	–	–	–	20.6µM	–
COCCNc1oc(-c2ccc(COc3ccc(OC)cc3)o2)nc1C#N	?	·	–	–	–
COCCCNc1oc(-c2ccc(COc3ccc(Cl)cc3)o2)nc1C#N	23.1µM	·	–	–	–
Cc1cccc(N2CCN(C(=O)c3ccccc3SCC(=O)N3CCCC3)CC2)c1C	23.1µM	–	·	?	–
Cc1cccc(N2CCN(C(=O)CCC(=O)N3CC(C)Oc4ccccc43)CC2)c1C (stereo not drawn)	18.4µM	–	–	–	–
Cc1cccc(N2CCN(C(=O)CSCc3ccc(F)cc3)CC2)c1C	·	·	–	–	–
O=[N+]([O-])c1cc(Cl)ccc1Nc1nc(Nc2ccc(Cl)cc2[N+](=O)[O-])nc(N2CCOCC2)n1	–	·	·	–	·
O=C(CSc1ccc(-c2cccs2)nn1)Nc1ccccc1	18.4µM	–	–	–	–
COC(=O)c1ccc(NC(=O)CSc2ccc(-c3cccs3)nn2)cc1	–	·	–	–	–
Cc1cc(C)cc(NC(=O)CSc2ccc(-c3cccs3)nn2)c1	10.3µM	?	–	–	–
